# Test system: HaCaT cells
# Experiment: Immunoblot of NRF2, NQO1, GCLM protein levels
# Assay type: cell-based, human
# Details: 10 μM
structure (smiles),measurement,setting,value
COc1ccc(S(=O)(=O)N(CC(=O)O)c2ccc(N(CC(=O)O)S(=O)(=O)c3ccc(OC)cc3)c3ccccc23)cc1 [Compound 6a],NQO1 protein level,"6 h, vs DMSO",modest increase
same,NRF2 protein level,"6 h, vs DMSO",modest increase
same,GCLM protein level,"24 h, vs vehicle",significantly higher
same,NQO1 protein level,"24 h, vs vehicle",Increased
same,NRF2 protein level,"24 h, vs vehicle",Increased
